{
  "sequences": {"note": "By UniProt entry, the sequences of proteins in these tests, tags left out. Residues count along the entry.", "UniProt J7TAF3, 1-456": "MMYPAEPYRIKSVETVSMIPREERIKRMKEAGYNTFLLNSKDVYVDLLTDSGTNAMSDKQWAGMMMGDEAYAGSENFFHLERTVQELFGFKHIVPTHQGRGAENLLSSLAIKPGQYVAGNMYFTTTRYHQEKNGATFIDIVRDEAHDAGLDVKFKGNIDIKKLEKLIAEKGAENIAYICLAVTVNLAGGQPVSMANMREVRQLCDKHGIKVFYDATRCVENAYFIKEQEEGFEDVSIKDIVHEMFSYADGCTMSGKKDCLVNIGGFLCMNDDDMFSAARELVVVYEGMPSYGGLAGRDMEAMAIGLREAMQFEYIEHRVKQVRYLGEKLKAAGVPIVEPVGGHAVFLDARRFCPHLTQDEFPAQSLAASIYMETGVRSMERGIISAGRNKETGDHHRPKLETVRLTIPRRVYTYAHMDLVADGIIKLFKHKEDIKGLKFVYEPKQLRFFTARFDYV"},
  "source": "paper PMC11259132",
  "about": "“Tyrosine phenol-lyase inhibitor quercetin reduces fecal phenol levels in mice” (PNAS Nexus, 2024)",
  "biological_target": "T1, Tyrosine phenol-lyase (TPL) (Morganella morganii, UniProt J7TAF3)",
  "T1 construct": "recombinant TPL from M. morganii ssp. morganii (JCM1672), pET-15b",
  "format": "biochemical",
  "data": [
    {"smiles": "O=c1c(O)c(-c2cc(O)c(O)c(O)c2)oc2cc(O)cc(O)c12", "note": "[myricetin]", "values": [
      {"measurement": "recombinant TPL assay at 500 μM inhibitor, phenol by LC-MS", "value": "structural analogs of quercetin, including taxifolin, kaempferol, luteolin, and myricetin, significantly inhibited TPL-catalyzed phenol production"}
    ]}
  ]
}
